Experimental data reported in PubChem BioAssay AID2796 (The Scripps Research Institute Molecular Screening Center, 2010).
The entries are a selection whose mix differs from that of the whole data set. Some of these compounds have results that are not shown, active ones among them. Active and inactive are the calls of the source. Cut-off read from the data, not from the text of the source: active = activation above about 47%; inactive = the rest.

Protein sequences, listed by entry. Tags and fused reporters are not part of them.
UniProt P35869, whole entry: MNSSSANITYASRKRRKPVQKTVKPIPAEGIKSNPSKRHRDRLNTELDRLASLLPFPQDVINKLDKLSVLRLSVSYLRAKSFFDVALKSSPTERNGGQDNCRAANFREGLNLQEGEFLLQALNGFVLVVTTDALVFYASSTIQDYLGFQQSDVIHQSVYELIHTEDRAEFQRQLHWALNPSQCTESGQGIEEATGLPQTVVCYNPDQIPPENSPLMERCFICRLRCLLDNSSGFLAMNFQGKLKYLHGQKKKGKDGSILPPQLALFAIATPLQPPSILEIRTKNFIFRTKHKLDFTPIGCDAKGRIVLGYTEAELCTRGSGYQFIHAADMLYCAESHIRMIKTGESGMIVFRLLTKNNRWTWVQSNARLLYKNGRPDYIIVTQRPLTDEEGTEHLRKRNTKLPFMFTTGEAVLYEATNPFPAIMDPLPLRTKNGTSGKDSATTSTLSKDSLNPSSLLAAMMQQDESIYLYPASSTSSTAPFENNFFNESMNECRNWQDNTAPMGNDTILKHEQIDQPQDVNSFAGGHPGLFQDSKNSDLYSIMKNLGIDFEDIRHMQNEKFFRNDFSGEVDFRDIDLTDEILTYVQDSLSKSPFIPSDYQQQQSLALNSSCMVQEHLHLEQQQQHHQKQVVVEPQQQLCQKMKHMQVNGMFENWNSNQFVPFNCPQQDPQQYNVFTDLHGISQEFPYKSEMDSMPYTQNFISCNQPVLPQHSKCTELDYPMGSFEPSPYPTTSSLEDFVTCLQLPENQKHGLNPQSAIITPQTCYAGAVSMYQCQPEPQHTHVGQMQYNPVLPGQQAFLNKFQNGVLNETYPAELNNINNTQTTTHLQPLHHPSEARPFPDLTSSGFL

Target: Aryl hydrocarbon receptor (Homo sapiens) (UniProt P35869)
Assay: AHR activators, primary screen, cell-based, luminescence, luciferase reporter, human (AID 2796);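 note: 0% = vehicle wells and 100% = reference agonist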
Details: AHR-responsive luciferase reporter cells, at 5 µM, stronger effect = higher value

Question: For CC(C)Oc1ccc(C(=O)NCC2(N(C)C)CCCCC2)cc1, which activation is on record?
Answer: inactive: 1.96%

Question: CN(C)c1cccc(C(=O)NCC2(N(C)C)CCCCC2)c1 was tested. Which activation did it give?
Answer: inactive: 2.9%

Question: COc1ccc(Br)c(C(=O)NCC2(N3CCCCC3)CCCCC2)c1 was tested. Which activation did it give?
Answer: inactive: 2.39%

Question: With O=C(OC1CN2CCC1CC2)C(CO)(c1ccccc1)c1ccccc1 (centres undefined) as the compound, how does the activation read?
Answer: inactive: 1.5%

Question: O=C(NCC1(N2CCCCC2)CCCCC1)c1cccc(Cl)c1 was tested. Which activation did it give?
Answer: inactive: -0.1%

Question: For COc1cccc(C(=O)NCC2(N3CCCCC3)CCCCC2)c1, which activation is on record?
Answer: inactive: 1.41%

Question: How did the activation turn out when COc1ccc(Cl)cc1C(=O)NCC1(N(C)C)CCCCC1 was run?
Answer: inactive: 1.06%

Question: How did the activation turn out when COc1cc(C(=O)NCC2(N(C)C)CCCCC2)c([N+](=O)[O-])cc1OC was run?
Answer: inactive: 0.97%

Question: CN(C)C1(CNC(=O)c2ccc(Br)cc2)CCCCC1 was tested. Which activation did it give?
Answer: inactive: 5.3%

Question: With COc1ccc(C(=O)NCC2(N(C)C)CCCCC2)cc1 as the compound, how does the activation read?
Answer: inactive: 1.07%

Question: CCN1CCCC(OC(=O)C2(O)c3ccccc3C=Cc3ccccc32)C1 (centres undefined) was tested. Which activation did it give?
Answer: inactive: 0.18%

Question: With Cc1cc(C(=O)NCC2(N3CCCCC3)CCCCC2)ccc1[N+](=O)[O-] as the compound, how does the activation read?
Answer: inactive: -0.57%

Question: For O=C(NCC1(N2CCCCC2)CCCCC1)c1cccc(Br)c1, which activation is on record?
Answer: inactive: 0.97%

Question: Which activation does the source give for C=CCN1CCN(CCOC(=O)C(O)(c2ccccc2)c2ccccc2)CC1 here?
Answer: inactive: -1.11%

Question: Which activation does the source give for O=C(NCC1(N2CCCCC2)CCCCC1)c1cc(F)c(F)cc1Cl here?
Answer: inactive: -1.23%

Question: Cc1ccccc1C(=O)NCC1(N2CCCCC2)CCCCC1 was tested. Which activation did it give?
Answer: inactive: 0.84%

Question: Which activation does the source give for CN(C)c1ccc(C(=O)NCC2(N(C)C)CCCCC2)cc1 here?
Answer: inactive: 1.24%

Question: Which activation does the source give for CN(C)C1CCCC1OC(=O)C(O)(c1ccccc1)c1ccccc1 (centres undefined) here?
Answer: inactive: -3.41%

Question: Cc1ccc(C(=O)NCC2(N3CCCCC3)CCCCC2)cc1 was tested. Which activation did it give?
Answer: inactive: 1.93%

Question: Which activation does the source give for CCN(CC)CC(C)C(C)OC(=O)C(O)(c1ccccc1)c1ccccc1 (centres undefined) here?
Answer: inactive: -0.06%

Question: With COc1cc(SC)ccc1C(=O)NCC1(N(C)C)CCCCC1 as the compound, how does the activation read?
Answer: inactive: 2.37%

Question: With CC(C)N1C(=O)CC2(CCN(CCOC(=O)C(O)(c3ccccc3)c3ccccc3)CC2)C1=O as the compound, how does the activation read?
Answer: inactive: 10.2%

Question: Which activation does the source give for CN1[C@@H]2CC[C@H]1CC(OC(=O)C(O)(c1ccccc1)c1ccccc1)C2 (some centres undefined) here?
Answer: inactive: -0.36%

Question: O=C(NCC1(N2CCCCC2)CCCCC1)c1cc([N+](=O)[O-])ccc1Cl was tested. Which activation did it give?
Answer: inactive: 0.03%
